From patent US9180183B2, “Phospholipid drug analogs” (Telormedix SA, priority 2010, dated 2015)
Where “and” joins values, the source holds several entries; their conditions need not be identical. Equal values may be shown once.

Key:
[1] = Serum exposure after intravesical chronic treatment in mouse; settings: intravesical 0.1%, LLOQ 2.5 ng/ml
Method: Serum samples were taken at time points: day 0, 2 hours, day 1, 24 hours, and day 6, 2 hours.
Samples were evaporated and re-suspended in 70 microliters of acetonitrile/methanol 1:1.

[2] = system: Cutaneous Squamous Cell Carcinoma (SCC) cell lines SCL-I, SCL-II, SCC-12, SCC-13; assay: Proapoptotic and cytotoxic effects on cutaneous SCC cell lines (real-time cell analysis, microscopy); format: cell-based, human; settings: SCC cells; time of treatment 3d; 120 microM
Method: SCC cells are grown under standard conditions (10% FBS).
Time and dose dependency of effects on total cell numbers have been investigated by real-time cell analysis, which is based on continuous monitoring of electric conductance in microtiter wells (E-plates, Roche), which corresponds to the cell numbers. […] For these assays 4 cell lines should be used to obtain a representative overview on the effects on SCC cells.

With `CC(C)Cn1cnc2c(N)nc3ccccc3c21` [Imiquimod, reference compound] the “Imiquimod levels in serum, Mean ± S.D.” value ([1]; Day 0, 2 hours) was 6.2 ± 0.8 ng/mL, the “Imiquimod levels in serum, individual mice” value ([1]; Day 0, 2 hours) was 6.4 ng/mL and 6.8 ng/mL and 5.3 ng/mL and the “Imiquimod levels in serum, individual mice” value ([1]; Day 1, 24 hours) was “<LLOQ”. For the same compound, the “Imiquimod levels in serum, Mean ± S.D.” value ([1]; Day 6, 2 hours) was 8.9 ± 5.6 ng/mL, the “Imiquimod levels in serum, individual mice” value ([1]; Day 6, 2 hours) was 2.8 ng/mL and 8.1 ng/mL and 16.3 ng/mL and 8.7 ng/mL and the “morphological changes (microscopy)” value [2] was “cell detachment, morphological changes and inhibition of proliferation”.
